System: MC3T3-E1 cells
Assay: Alizarin Red S (ARS) mineralization assay
Assay type: cell-based, mouse
Details: plates; various DFM concentrations
From the text: Because it is expected that pre-osteoblasts differentiate into osteoblasts under a hypoxic condition, cells should mineralize calcium in the ECM. The study of mineralization of ECM can be viewed as a measure or potential for bone formation. In this regard, Alizarin Red Assay (ARS) (Sigma-Aldrich) is used qualitatively and quantitatively to indicate the presence of calcium in the matrix. […] The negative control for this experiment is cells grown in 3D printed foams in complete media with no added glutamate. After incubation, the samples are washed carefully with PBS without disturbing the cell layer and fixed with 4% paraformaldehyde for 30 minutes. The 3D foam structures were then stained with alizarin red (pH˜4.1) in the dark and at room temperature for 30 minutes. Samples are qualitatively studied via light microscope after rinsing with PBS. The calcium nodules should appear red. To conduct quantitative analysis, 10% cetyl pyridinium chloride will be added to remove the alizarin red stain. The absorbance of the solution is measured at 570 nm OD with a spectrophotometric microplate reader.

## CC(=O)N(O)CCCCCNC(=O)CCC(=O)N(O)CCCCCNC(=O)CCC(=O)N(O)CCCCCN.CS(=O)(=O)O [DFM, Deferoxamine Mesylate]
  synthesis of hydroxyapatite versus DFM concentration: mostly observed at lower concentrations of DFM

Source: US20180043059A1, “3D Ti-6Al-4V Structures with Hydrogel Matrix” (priority 2016, published 2018)
